Conditions: mouse, in vivo, iv

Substance: Rhod-Dextran
- fluorescence of tracer agent after injection (clearance by healthy renal function): substantially not cleared
